From publication PMC5638916, “CETSA quantitatively verifies in vivo target engagement of novel RIPK1 inhibitors in various biospecimens” (Scientific Reports, 2017)

Sequences of proteins named here, by UniProt entry; tags and fusion partners are left off. Residues count along the entry.
UniProt Q13546, 1-375 limits assumed: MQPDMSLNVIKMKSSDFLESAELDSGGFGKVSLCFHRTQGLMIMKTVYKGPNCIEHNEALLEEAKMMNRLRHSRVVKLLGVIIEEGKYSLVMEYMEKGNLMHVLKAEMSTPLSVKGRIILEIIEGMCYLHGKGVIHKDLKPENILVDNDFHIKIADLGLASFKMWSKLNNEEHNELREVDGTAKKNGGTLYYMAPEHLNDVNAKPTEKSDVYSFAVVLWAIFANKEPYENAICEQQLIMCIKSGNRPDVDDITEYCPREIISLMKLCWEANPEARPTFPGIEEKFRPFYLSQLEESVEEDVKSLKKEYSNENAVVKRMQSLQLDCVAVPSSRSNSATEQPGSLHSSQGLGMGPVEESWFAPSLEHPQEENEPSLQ
UniProt Q13546, whole entry: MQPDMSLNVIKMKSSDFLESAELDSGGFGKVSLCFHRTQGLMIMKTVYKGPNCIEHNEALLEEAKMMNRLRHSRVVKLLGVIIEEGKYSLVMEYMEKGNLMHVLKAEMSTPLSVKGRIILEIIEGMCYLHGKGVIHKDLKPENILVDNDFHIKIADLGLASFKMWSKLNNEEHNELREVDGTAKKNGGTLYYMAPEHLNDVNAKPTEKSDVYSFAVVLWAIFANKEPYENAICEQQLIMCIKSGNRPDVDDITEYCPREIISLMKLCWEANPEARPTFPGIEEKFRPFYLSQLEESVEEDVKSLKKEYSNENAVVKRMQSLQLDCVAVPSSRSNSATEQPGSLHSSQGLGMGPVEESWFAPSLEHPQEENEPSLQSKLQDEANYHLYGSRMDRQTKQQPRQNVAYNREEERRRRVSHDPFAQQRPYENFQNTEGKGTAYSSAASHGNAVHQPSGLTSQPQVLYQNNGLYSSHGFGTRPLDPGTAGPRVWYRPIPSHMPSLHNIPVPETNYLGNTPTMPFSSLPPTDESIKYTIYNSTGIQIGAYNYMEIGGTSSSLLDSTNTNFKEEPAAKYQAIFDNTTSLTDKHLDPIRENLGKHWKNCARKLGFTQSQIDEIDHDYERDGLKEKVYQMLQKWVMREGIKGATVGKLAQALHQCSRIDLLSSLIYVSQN

Key:
human RIPK1 [1] = molecular target: T1, human RIPK1 (Homo sapiens, UniProt Q13546); assay: Competition recombinant enzyme binding assay (TR-FRET), human RIPK1; settings: read-out: hRIPK1 enzyme (Ki), recombinant GST-His-human RIPK1 (1-375), 95% CI in brackets
HT-29 cells = assay: HT-29 necroptosis assay; type: cell-based, human; settings: read-out: HT29-Necroptosis (IC50), TNF-α + AT-406 + zVAD-FMK, 16–20 h
human RIPK1 [2] = molecular target: T1, human RIPK1; assay: CETSA (Tagg curves and ITDRF) for human RIPK1 with HT-29 cells; type: cell-based; settings: read-out: human_ITDRF-CETSA (EC50), compound 30 min, 47 °C for 8 min denature, independent runs reported

Row | Compound | Ki (human RIPK1 [1]) | IC50 (HT-29 cells) | EC50 (human RIPK1 [2])
1 | CN1C(=O)[C@@H](N2CCc3cn(Cc4ccc(C#N)cc4)nc3C2=O)COc2ccccc21 | 0.058 µM | 0.2 µM | 
2 | CN1C(=O)[C@@H](N2CCc3cn(Cc4ccccc4)nc3C2=O)COc2cc(C#N)ccc21 | 0.0058 µM | 0.024 µM | 0.004 µM
